Assay results reported in patent publication US12357657B2, “Silver-/gold-compounds and methods thereof” (priority 2019, dated 2025).

Amino acid sequences for entries named in this document (tags omitted). Residues count along the entry.
UniProt A0A0R6L508, 200-541: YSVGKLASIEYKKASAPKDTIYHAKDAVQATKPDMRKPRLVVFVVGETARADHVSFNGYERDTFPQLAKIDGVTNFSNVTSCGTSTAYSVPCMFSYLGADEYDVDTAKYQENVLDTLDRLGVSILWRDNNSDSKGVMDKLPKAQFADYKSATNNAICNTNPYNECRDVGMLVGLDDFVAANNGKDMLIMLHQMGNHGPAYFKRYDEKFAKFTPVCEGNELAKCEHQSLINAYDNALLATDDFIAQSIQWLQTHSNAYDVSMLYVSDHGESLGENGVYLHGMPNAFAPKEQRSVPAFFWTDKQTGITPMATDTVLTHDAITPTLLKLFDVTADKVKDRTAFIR

Columns and labels:
HepG2 cells = conditions: XTT assay, up to the highest dose
full length MCR-1 = target: T1, full length MCR-1 (Escherichia coli, UniProt A0A0R6L508); format: biochemical; conditions: MCR-1 pre-treated with 10 molar equivalents, 25° C. overnight
T1 construct: The full length MCR-1 was pre-treated with or without 10 molar equivalents
Method: TLC plate was used to separate NBD-glycerol from the MCR-1 reaction mixture in a mobile phase [ethyl acetate:methanol:water, 7:2:1 (vol/vol)]. The reaction product was analyzed by exposing the TLC plate to UV light (455-485 nm) and visualizing the fluorescent signals with a gel imaging system. […] Cellular Thermal Shift Assay

Zn(II)-MCR-1-S = Zn(II)-MCR-1-S (Escherichia coli, UniProt A0A0R6L508); conditions: PAR assay
MCR-1-S = MCR-1-S (Escherichia coli, UniProt A0A0R6L508); conditions: ICP-MS
Method: The equilibrium dialysis was used to monitor the exact binding process. Apo-MCR-1-S was put in the inner side of dialysis membrane and outer side was supplemented with Au^+, Ag^+ or Zn^2+ at different molar ratios. Zn^2+ displacement analysis was performed by adding equivalents of Au^+ and Ag^+ into outer side of the membrane.

apo-MCR-1-S = apo-MCR-1-S (Escherichia coli, UniProt A0A0R6L508); test: biochemical
Method: The apo-MCR-1-S without any tag was diluted into proper concentration for ITC assay. […] The stoichiometry of metal binding and binding affinities were obtained by fitting the data with proper equations and these assays were performed in triplicate.

[Ag+] [AgNO3, silver nitrate]
cytotoxicity against HepG2 cells (HepG2 cells): did not exhibit or showed very low cytotoxicity

[Au+] [AuCl, gold(I) chloride]
migration of NBD-glycerol (cleavage activity of MCR-1) (full length MCR-1): none of AgNO3, AuCl or Au(PEt3)Cl treatment group exhibited observable migration | release of Zn(II) from MCR-1-S upon titration (Zn(II)-MCR-1-S): completely released | replacement of protein bound metal by extraneous Zn(II) (MCR-1-S): could not be replaced | equivalents of metal that replaced about 3 molar equivalents of Zn(II) (MCR-1-S; equilibrium dialysis): 2.25 equivalent | Kd (apo-MCR-1-S): ~800 nM
